Tested on: Salmonella typhimurium TA1535
Assay: Bacterial reverse mutation assay, TA1535
Settings: TA1535, S9+, 3.0 μg/plate, positive control

Nc1ccc2cc3ccccc3cc2c1 [2-Aminoanthracene (2-AA), 2-Aminoanthracene]
Mean revertant colony count: 164

Reference: US11738063B2, “Pharmaceutical composition for preventing or treating neurodegenerative diseases which includes flower extract of Daphne genkwa or fractions thereof as active ingredient” (KOREA RESEARCH INSTITUTE OF BIOSCIENCE AND BIOTECHNOLOGY, priority 2016, dated 2023)
